Patent publication US8106218B2, “Pharmaceutical compounds” (Neuroscienze Pharmaness S.C. A R.L., priority 2004, dated 2012)

Target: T1, cannabinoidergic CB2 receptors (Rattus norvegicus, UniProt Q9QZN9)
T1 construct: the brain in toto (cerebellum excluded) and the spleen were rapidly dissected and maintained in ice; from tissue; host or cells: rat spleen, membrane preparation
T1 sequence (Q9QZN9 1-360): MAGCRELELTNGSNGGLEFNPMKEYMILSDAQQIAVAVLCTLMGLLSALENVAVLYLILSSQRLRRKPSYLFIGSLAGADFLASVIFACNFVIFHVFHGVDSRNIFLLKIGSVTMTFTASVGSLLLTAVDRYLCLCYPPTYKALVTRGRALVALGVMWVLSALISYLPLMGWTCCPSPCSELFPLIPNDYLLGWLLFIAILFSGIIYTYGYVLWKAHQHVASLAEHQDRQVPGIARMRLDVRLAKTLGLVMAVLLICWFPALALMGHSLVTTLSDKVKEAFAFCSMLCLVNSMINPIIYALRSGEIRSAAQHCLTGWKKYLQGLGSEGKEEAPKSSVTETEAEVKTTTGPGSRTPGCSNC
Assay: Radioreceptorial binding, [3H]-CP-55,940 competition, rat spleen membranes
Details: 1 nM [3H]-CP55,940
Description: The affinity of the synthesized compounds towards the cannabinoidergic CB1 and CB2 receptors was evaluated in vitro through radioreceptorial binding studies by utilizing the following method.
The receptorial binding technique allows indeed to establish if and with what affinity and specificity a determined compound binds itself to a particular receptor. To evaluate the possible affinity of a determined compound towards a particular receptor it is necessary to make to compete (in a particular preparation of the tissue in which those determined receptors are present) the compound to be tested with another compound whose affinity is known and whose molecule was rendered radioactive. […] The reading of the radioactivity present in the receptor-compound complex allows furthermore to calculate with extreme precision the amount of compound bound to the receptor. […]
The obtained membranes (50-80 μg of proteins) were incubated in the presence of 1 nM di[^3H]-CP55,940 for 1 h at 30° C. in a final volume of 0.5 ml of TME buffer containing 5 mg/ml of bovine serum albumin (BSA). The non specific binding was measured in the presence of CP55,940 at the 1 μM concentration. […]
The radioactivity present in the filters was measured by a scintillator spectrophotometer (Tricarb 2100, Packard, Meridien, USA). […]

In the case of “N-piperidino-5-(4-chlorophenyl)-1-(2,4-dichlorophenyl)-4-methylpyrazol-3-carboxyamide [SR141716A, reference compound]”, the Ki is reported as 514 ± 30 nM.
